This is a selection; strong and weak results do not stand in their true shares. Records with an inconclusive call do not appear. Active and inactive are the calls of the source. The call rests on the fitted dose curve; in most records, active means well fitted activation curve with a large enough effect; inconclusive means small, poorly fitted or top-dose-only effect; inactive means no such curve, though single readings can be large or run the other way.
assay: qHTS Assay for Agonists of the Thyroid Stimulating Hormone Receptor: Activators of Intracellular cAMP Concentrations in Parental HEK 293; conditions: parental HEK293 CNG cAMP sensor, membrane potential fluorescence; at 57.1 µM (top of the series) unless noted; further: % of control where 0% means no effect; nearly all actives have a fitted effect of over 55% in size

| Compound | activation |
| --- | --- |
| NNC(NN)NN.n1nc(-c2nn[nH]n2)n[nH]1 | inactive: 11.6% [at 11.4 µM] |
| Cc1ccccc1NP(C)(=O)Nc1ccccc1C | inactive: 12% |
| CP(=O)(Nc1ccc2c(c1)OCCO2)Oc1ccccc1 (stereo not drawn) | inactive: 7.8% |
| CCOP(=O)(CC)OCC | inactive: -0.244% |
| CCOP(C)(=S)SCC(=O)NC(C)(CC)C(=O)O (stereo not drawn) | inactive: 28.5% |
| Cc1c([N+](=O)[O-])cccc1[N+](=O)[O-] | inactive: 7.48% |
| CN(C)CCOC(=O)C(O)(c1ccccc1)C1CCCCC1 (stereo not drawn) | inactive: 8.42% |
| Cc1cccc([N+](=O)[O-])c1[N+](=O)[O-] | inactive: -39.1% |
| CP(=O)(Nc1ccccc1F)Oc1ccccc1 (stereo not drawn) | inactive: 13.1% |
| CP(=O)(Nc1ccccn1)Oc1ccccc1 (stereo not drawn) | inactive: 7.9% |
| Cc1nc2ccc3ccccc3c2o1.O=[N+]([O-])c1cc([N+](=O)[O-])c(O)c([N+](=O)[O-])c1 | inactive: 7.28% |
| COc1ccccc1OP(C)(=O)Nc1ccc(C)c(C)c1 (stereo not drawn) | inactive: 8.8% |
| CP(=O)(Oc1ccccc1)N1CCOC1=O (stereo not drawn) | inactive: 2.09% |
| COc1ccccc1OP(C)(=O)Nc1c(C)n(C)n(-c2ccccc2)c1=O (stereo not drawn) | inactive: 25% |
| CCOP(C)(=S)SCC(=O)NC(C)C(=O)O (stereo not drawn) | inactive: 0.701% |
| CP(=O)(NC(=O)Nc1ccccc1)Oc1ccccc1 (stereo not drawn) | inactive: 9.95% |
| CP(=S)(Nn1cnnc1)Oc1ccccc1 (stereo not drawn) | inactive: 1.12% |
| N1=C(c2nnc(-c3nn[nH]n3)nn2)NNN1 | inactive: 25.6% [at 11.4 µM] |
| Cc1ccc(NP(C)(=O)Oc2ccccc2)c(C)c1 (stereo not drawn) | inactive: 8.27% |
| COc1ccccc1OP(C)(=O)Nc1ccc(C)cc1 (stereo not drawn) | inactive: -1.57% |
| Cc1ccc(C)c(NP(C)(=O)Oc2ccccc2)c1 (stereo not drawn) | inactive: 13.1% |
| O=[N+]([O-])c1cccc([N+](=O)[O-])c1 | inactive: -8.38% |
| Cc1nc2ccc3ccccc3c2s1.O=[N+]([O-])c1cc([N+](=O)[O-])c(O)c([N+](=O)[O-])c1 | inactive: 17.2% |

Source: PubChem BioAssay AID938 (National Center for Advancing Translational Sciences (NCATS), 2007)
